Assay: xn = mol fraction of the nth substance listed

OCCOCCOCCOCCO + O
viscosity [mPa·s]
Settings | 293.15 K | 298.15 K | 303.15 K | 308.15 K | 313.15 K | 318.15 K | 323.15 K
100 kPa, x1 = 0.0061 | – | 0.97 | 0.81 | 0.77 | 0.69 | 0.62 | 0.58
100 kPa, x1 = 0.0128 | – | 1.34 | 1.09 | 1 | 0.9 | 0.81 | 0.7
100 kPa, x1 = 0.0202 | – | 1.83 | 1.43 | 1.28 | 1.15 | 1.04 | 0.85
100 kPa, x1 = 0.0283 | – | 2.2 | 1.84 | 1.62 | 1.44 | 1.29 | 1.02
100 kPa, x1 = 0.0374 | – | 2.79 | 2.32 | 2.02 | 1.79 | 1.59 | 1.28
100 kPa, x1 = 0.0476 | – | 3.49 | 2.91 | 2.49 | 2.19 | 1.94 | 1.58
100 kPa, x1 = 0.0591 | – | 4.33 | 3.61 | 3.07 | 2.67 | 2.35 | 1.86
100 kPa, x1 = 0.0722 | – | 5.35 | 4.46 | 3.75 | 3.24 | 2.83 | 2.31
100 kPa, x1 = 0.0871 | – | 6.59 | 5.49 | 4.58 | 3.92 | 3.4 | 2.76
100 kPa, x1 = 0.1045 | – | 8.09 | 6.74 | 5.59 | 4.74 | 4.07 | 3.47
100 kPa, x1 = 0.1248 | – | 9.92 | 8.27 | 6.81 | 5.72 | 4.87 | 4.13
100 kPa, x1 = 0.1489 | – | 12.16 | 10.13 | 8.3 | 6.9 | 5.83 | 4.92
100 kPa, x1 = 0.1781 | – | 14.89 | 12.41 | 10.1 | 8.33 | 6.98 | 5.86
100 kPa, x1 = 0.2139 | – | 18.9 | 15.17 | 12.28 | 10.05 | 8.35 | 6.98
100 kPa, x1 = 0.2592 | – | 23.17 | 18.47 | 14.87 | 12.08 | 9.97 | 8.3
100 kPa, x1 = 0.3182 | – | 27.77 | 22.31 | 17.86 | 14.41 | 11.81 | 9.81
100 kPa, x1 = 0.398 | – | 33.45 | 26.46 | 21.06 | 16.91 | 13.79 | 11.44
100 kPa, x1 = 0.5122 | – | 38.36 | 30.3 | 23.98 | 19.23 | 15.65 | 12.98
100 kPa, x1 = 0.6374 | – | 41.26 | 32.15 | 25.12 | 20.46 | 16.68 | 13.64
100 kPa, x1 = 0.7615 | – | 42.88 | 33.5 | 26.78 | 21.38 | 17.42 | 14.18
100 kPa, x1 = 0.8856 | – | 43.94 | 34.36 | 27.15 | 21.9 | 18.02 | 14.8
100 kPa, x2 = 0.014 | 57.68 | 43.78 | 34.06 | 27.11 | 21.93 | 18.01 | 14.99
100 kPa, x2 = 0.056 | 57.01 | 45.22 | 35.36 | 28.2 | 22.87 | 18.85 | 15.74
100 kPa, x2 = 0.059 | 59.98 | 46.12 | 35.96 | 28.59 | 23.13 | 19.03 | 15.85
100 kPa, x2 = 0.065 | 56.56 | 43.89 | 34.35 | 27.46 | 22.31 | 18.38 | 15.34
100 kPa, x2 = 0.095 | 58.76 | 45.02 | 35.26 | 28.08 | 22.77 | 18.73 | 15.62
100 kPa, x2 = 0.1 | 58.33 | 44.78 | 35.04 | 27.95 | 22.7 | 18.68 | 15.59
100 kPa, x2 = 0.127 | 58.17 | 44.43 | 34.74 | 27.73 | 22.52 | 18.53 | 15.47
100 kPa, x2 = 0.141 | 53 | 41.15 | 32.1 | 25.58 | 20.76 | 17.09 | 14.27
101 kPa, x1 = 0.02061 | – | – | 1.451 | 1.287 | 1.15 | 1.033 | 0.934
101 kPa, x1 = 0.03953 | – | – | 2.341 | 2.041 | 1.792 | 1.59 | 1.415
101 kPa, x1 = 0.0599 | – | – | 3.478 | 2.972 | 2.58 | 2.255 | 1.991
101 kPa, x1 = 0.07592 | – | – | 4.756 | 4.032 | 3.462 | 3 | 2.611
101 kPa, x1 = 0.1016 | – | – | 6.252 | 5.242 | 4.462 | 3.826 | 3.31
101 kPa, x1 = 0.1513 | – | – | 10.33 | 8.453 | 7.029 | 5.949 | 5.054
101 kPa, x1 = 0.2017 | – | – | 14.42 | 11.67 | 9.591 | 8.033 | 6.728
101 kPa, x1 = 0.2516 | – | – | 18.17 | 14.56 | 11.86 | 9.792 | 8.187
101 kPa, x1 = 0.3006 | – | – | 21.41 | 17.03 | 13.78 | 11.37 | 9.052
101 kPa, x1 = 0.4019 | – | – | 26.38 | 21.32 | 16.99 | 13.74 | 11.78
101 kPa, x1 = 0.5049 | – | – | 29.88 | 23.52 | 18.93 | 15.47 | 12.75
101 kPa, x1 = 0.597 | – | – | 31.86 | 25.09 | 20.18 | 16.44 | 13.63
101 kPa, x1 = 0.6977 | – | – | 33.27 | 26.31 | 21.16 | 17.27 | 14.27
101 kPa, x1 = 0.7514 | – | – | 33.84 | 26.7 | 21.5 | 17.58 | 14.5
101 kPa, x1 = 0.8072 | – | – | 34.28 | 27.15 | 21.87 | 17.89 | 14.76
101 kPa, x1 = 0.851 | – | – | 34.46 | 27.39 | 22.04 | 18.06 | 14.94
101 kPa, x1 = 0.9043 | – | – | 34.63 | 27.53 | 22.2 | 18.19 | 15.08
101 kPa, x1 = 0.956 | – | – | 34.9 | 27.7 | 22.43 | 18.33 | 15.2
101.33 kPa, x1 = 0.0003 | – | – | 0.784 | 0.71 | – | – | –
101.33 kPa, x1 = 0.0008 | – | – | 0.794 | 0.717 | – | – | –
101.33 kPa, x1 = 0.0012 | – | – | 0.804 | 0.726 | – | – | –
101.33 kPa, x1 = 0.0027 | – | – | 0.843 | 0.758 | – | – | –
101.33 kPa, x1 = 0.0051 | – | – | 0.909 | 0.812 | – | – | –
101.33 kPa, x1 = 0.0115 | – | – | 1.094 | 0.972 | – | – | –
101.33 kPa, x1 = 0.0339 | – | – | 1.958 | 1.688 | – | – | –
101.33 kPa, x1 = 0.0941 | – | – | 5.694 | 4.713 | – | – | –
101.33 kPa, x1 = 0.2972 | – | – | 21.42 | 16.7 | – | – | –
101.33 kPa, x1 = 0.3958 | – | – | 25.89 | 20.27 | – | – | –
101.33 kPa, x1 = 0.5753 | – | – | 30.52 | 23.92 | – | – | –
101.33 kPa, x1 = 0.6691 | – | – | 31.87 | 24.93 | – | – | –
101.33 kPa, x1 = 0.7737 | – | – | 33.08 | 26.26 | – | – | –
101.33 kPa, x1 = 0.8847 | – | – | 34.03 | 26.69 | – | – | –
101.33 kPa, x1 = 0.9219 | – | – | 34.27 | 26.79 | – | – | –
